By UniProt entry, the sequences of proteins in these tests, tags left out. Where a name states a change or a piece, a line headed by the entry shows the natural chain unless it says otherwise.
UniProt P0ACC7: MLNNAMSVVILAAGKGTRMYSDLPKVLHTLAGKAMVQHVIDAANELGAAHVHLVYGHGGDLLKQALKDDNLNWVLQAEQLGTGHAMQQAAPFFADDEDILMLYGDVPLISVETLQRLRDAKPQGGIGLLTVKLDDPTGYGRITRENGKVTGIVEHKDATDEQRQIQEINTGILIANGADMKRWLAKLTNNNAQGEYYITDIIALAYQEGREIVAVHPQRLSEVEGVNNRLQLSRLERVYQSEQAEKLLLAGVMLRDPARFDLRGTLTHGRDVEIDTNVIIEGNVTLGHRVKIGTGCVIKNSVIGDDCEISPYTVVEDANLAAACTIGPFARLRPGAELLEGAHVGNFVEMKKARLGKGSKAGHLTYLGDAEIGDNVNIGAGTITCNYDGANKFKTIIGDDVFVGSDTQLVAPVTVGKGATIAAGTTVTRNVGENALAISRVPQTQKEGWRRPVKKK

According to BindingDB's records for doi:10.1074/jbc.M111.274068 (Astrazeneca, 2011):

Molecular target: Bifunctional protein GlmU (Escherichia coli (strain K12), UniProt P0ACC7)
Experiment: Inhibition Assay
Conditions: pH 7.35
Description: Inhibition assay using GlmU bifuncation enzyme with various bacterial strains.

COc1cc(OC)c(S(=O)(=O)N(c2ccccc2)c2ccc(N)cc2)cc1NC(=O)CCC(=O)O [Sulfonamide, 3]
IC50: 0.018 µM
